Experiments:
ETA receptor [1] = target: T1, ETA receptor (Homo sapiens, UniProt P25101); assay: Paired ET-1 CCRCs with and without ETA antagonist, pKB by Schild regression (Examples 4 and 5); assay type: cell-based
T1 construct: Small peripheral resistance vessels (<400 μm) were carefully dissected from fresh biopsies using a light microscope; from tissue; host or cells: small peripheral resistance arteries from gluteal skin fat biopsies of angina patients
Procedure: Ex vivo pharmacological assessment of peripheral vascular function was performed on patients who volunteered to undergo a gluteal skin fat biopsy within 4 weeks of the invasive coronary function assessment. The biopsy was obtained under sterile conditions using local anaesthesia with lidocaine (2%). Small peripheral resistance vessels (<400 μm) were carefully dissected from fresh biopsies using a light microscope. About 2 mm length vessels were mounted on 40-μm stainless steel wires for isometric myography in multi-channel myograph chambers (DMT, Denmark) filled with physiological saline solution. […] This vascular biology sub-study was an extension of our work in INOCA subjects that was previously published in this journal.^31A The detailed methods are described in the Supplementary material online, Appendix.
The peripheral vascular sensitivity to ET-1 (pEC50) and maximum vasoconstriction to ET-1 (Eumax) were determined. For the antagonist studies, the affinity (KB) of BQ123 was first determined in paired vessels from individuals and calculated using Schild regression. The pKB (−log10 KB) values were compared between each genotype as an indicator of whether or not patients of different genotypes are likely to respond equally well to an ETA antagonist used clinically.

Sequences of proteins named here, by UniProt entry; tags and fusion partners are left off. Residues count along the entry.
UniProt P25101, 21-427: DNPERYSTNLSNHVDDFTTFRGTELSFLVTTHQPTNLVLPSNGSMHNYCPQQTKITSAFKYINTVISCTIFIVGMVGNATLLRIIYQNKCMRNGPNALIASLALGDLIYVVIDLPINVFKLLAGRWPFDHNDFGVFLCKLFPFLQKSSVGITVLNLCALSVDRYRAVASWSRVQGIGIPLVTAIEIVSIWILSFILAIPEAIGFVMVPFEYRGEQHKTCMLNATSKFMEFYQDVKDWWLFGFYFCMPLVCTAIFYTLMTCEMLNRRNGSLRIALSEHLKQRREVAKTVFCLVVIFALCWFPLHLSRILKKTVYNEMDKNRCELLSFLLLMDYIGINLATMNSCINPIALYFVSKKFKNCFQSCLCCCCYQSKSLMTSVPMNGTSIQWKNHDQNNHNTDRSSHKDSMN

ETA receptor [2] = target: T1, ETA receptor; assay: ET-1 cumulative concentration response curves after antagonist preincubation, Schild plot pA2 (Example 3); assay type: cell-based; conditions: microvessels pre-treated with antagonist
ETAR over ETBR = conditions: cited from earlier work

COc1nc(C)cnc1NS(=O)(=O)c1cccnc1-c1ccc(-c2nnco2)cc1 [zibotentan, N-(3-Methoxy-5-methylpyrazin-2-yl)-2-[4-(1,3,4-oxadiazol-2-yl)phenyl]pyridine-3-sulfonamide]
Kb (ETA receptor [1]): 28.8 nM | effect on the ET-1 constrictor response (shift of ET-1 CCRC) (ETA receptor [2]): markedly reduced | effect on the ET-1 constrictor response (shift of ET-1 CCRC) (ETA receptor [2]; listed as Zibotentan): potently inhibits the ET-1 mediated vessel constriction | selectivity for ETAR over ETBR (factor) (ETAR over ETBR): around 10^7

From patent publication US12233061B2, “Microvascular angina” (THE UNIVERSITY COURT OF THE UNIVERSITY OF GLASGOW, priority 2019, dated 2025)
